Values quoted from earlier work in US7678819B2.

Amino acid sequences for entries named in this document (tags omitted). Residues count along the entry.
UniProt P05067, 672-711 limits assumed: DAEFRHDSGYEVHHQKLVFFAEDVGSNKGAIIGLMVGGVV
UniProt P05067, 672-713 limits assumed: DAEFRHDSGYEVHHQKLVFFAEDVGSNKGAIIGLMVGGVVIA

Target: AD cortical homogenates (Homo sapiens, UniProt P05067)
Settings: tested as the radiolabelled form

CNc1ccc(/C=C/c2ccc(O)cc2)cc1
binding capacity: 14-45 pmol/mg protein
